Here are results for one molecule from article PMC4820845, “ELL targets c-Myc for proteasomal degradation and suppresses tumour growth” (Nature Communications, 2016).

In the test the target is T1, His-tagged ELL (human, UniProt P55199 1-621).
T1 construct: ELL, human; also called His-ELL; His6-ELL; source: E. coli (BL21), purified
T1 sequence (looked up): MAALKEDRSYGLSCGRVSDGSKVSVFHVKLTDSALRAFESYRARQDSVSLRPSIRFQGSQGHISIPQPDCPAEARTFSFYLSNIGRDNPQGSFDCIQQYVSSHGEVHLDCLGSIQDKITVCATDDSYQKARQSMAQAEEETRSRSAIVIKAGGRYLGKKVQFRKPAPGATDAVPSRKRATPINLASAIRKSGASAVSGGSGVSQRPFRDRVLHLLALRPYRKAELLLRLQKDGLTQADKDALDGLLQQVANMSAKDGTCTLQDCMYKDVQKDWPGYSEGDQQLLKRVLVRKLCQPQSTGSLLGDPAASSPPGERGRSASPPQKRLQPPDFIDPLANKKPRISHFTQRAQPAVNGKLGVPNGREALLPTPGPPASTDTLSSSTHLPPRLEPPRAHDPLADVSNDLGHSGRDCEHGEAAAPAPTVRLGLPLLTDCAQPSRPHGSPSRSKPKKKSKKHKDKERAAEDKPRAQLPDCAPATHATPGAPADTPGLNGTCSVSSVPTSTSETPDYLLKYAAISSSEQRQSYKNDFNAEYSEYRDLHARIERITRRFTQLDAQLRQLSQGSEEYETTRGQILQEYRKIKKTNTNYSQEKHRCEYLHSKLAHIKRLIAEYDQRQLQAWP
Nature of the test: pull-down; GST-tagged c-Myc on GST-Bind Resin, His-tagged ELL detected by western blot; both expressed in E. coli (BL21) and purified. As to conditions: both partners purified.

B1: GST-tagged c-Myc (natural protein, human, UniProt P01106-1 1-439, looked up)
chain: MPLNVSFTNRNYDLDYDSVQPYFYCDEEENFYQQQQQSELQPPAPSEDIWKKFELLPTPPLSPSRRSGLCSPSYVAVTPFSLRGDNDGGGGSFSTADQLEMVTELLGGDMVNQSFICDPDDETFIKNIIIQDCMWSGFSAAAKLVSEKLASYQAARKDSGSPNPARGHSVCSTSSLYLQDLSAAASECIDPSVVFPYPLNDSSSPKSCASQDSSAFSPSSDSLLSSTESSPQGSPEPLVLHEETPPTTSSDSEEEQEDEEEIDVVSVEKRQAPGKRSESGSPSAGGHSKPPHSPLVLKRCHVSTHQHNYAAPPSTRKDYPAAKRVKLDSVRVLRQISNNRKCTSPRSSDTEENVKRRTHNVLERQRRNELKRSFFALRDQIPELENNEKAPKVVILKKATAYILSVQAEEQKLISEEDLLRKRREQLKHKLEQLRNSCA
notes: c-Myc, human; the printed residue numbers fit the 439-residue form; also called GST-c-Myc; source: E. coli (BL21), purified
Consider B1, for which the binding result is “binds”.
